Binding of CDR-mutated scFvs to a peptide of the spike HR2 region

The target is the same throughout: PDVDLGDISGINAS, from the HR2 region of SARS-CoV-2 spike.

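Phage display of a naive human antibody library on the peptide gave the parent. The variants were designed computationally from a first round of random CDR variants and then made and measured. Group labels follow the data file (En: ensemble of fine-tuned language models; GP: Gaussian process model; HC: hill climbing; Gen: genetic algorithm; Gibbs: Gibbs sampling; a sequence that several methods proposed may carry one label only). Affinity was read by AlphaSeq, a pooled yeast mating assay with surface-displayed partners. Mating (16 h, 30 °C) was followed by selection of diploids and sequencing of their barcodes. Read counts were normalised to the haploid input and turned into Kd by a linear fit to BCL2-family pairs of known affinity, for each replicate. Mating was done six times.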

Parent: Ab-14, a human scFv built as VH, a (GGGGS)3 linker, VL. Only the CDRs of the light chain vary.
VH: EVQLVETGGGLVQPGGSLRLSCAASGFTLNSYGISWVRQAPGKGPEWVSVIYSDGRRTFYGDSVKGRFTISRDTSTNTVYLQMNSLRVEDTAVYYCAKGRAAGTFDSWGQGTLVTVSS
VL: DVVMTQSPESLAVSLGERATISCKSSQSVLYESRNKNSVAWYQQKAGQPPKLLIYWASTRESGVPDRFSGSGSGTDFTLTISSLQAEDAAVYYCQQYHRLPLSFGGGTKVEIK

The parent's light chain CDRs are KSSQSVLYESRNKNSVA, WASTRES, QQYHRLPLS; each variant's own CDRs replace them letter for letter.
This list holds designs with more than six substitutions.
Values are apparent Kd, the geometric mean of the replicates that gave a signal; lower means stronger binding.
"nd" means that the variant was in the library but no mating with the target was seen in any replicate; the authors take this as a sign of poor binding, and no number exists.
Order: sorted from the lowest average up, undetected variants last.
The range of this assay differs from that of the first round, and the authors advise against merging the two.
Of ten entries with the parent sequence, four were seen in most replicates (averages 2.2 nM to 240 nM), three in one and three in none, so single entries are noisy.
Nonspecific signal, from three strains lacking the peptide, appeared in 4% of pairings of all light chain designs, centred on 430 nM (5% of these signals below 38 nM); values are not corrected for it.
The authors averaged sequences with at least three values out of six and counted those with two or fewer as poor binders.

With KVSMLGLYGQRNKNSVA / EASTRED / QQYHRLPLS [GP_Gibbs] the result was 340 pM (6 of 6 replicates).
With IVSQLMLWGLHAKNSIA / EAVTRYN / QQYDRLPLF [En_Gen] the result was 680 pM (6 of 6 replicates).
With MVNGIMDHLSKQTNNVA / ETVTRET / QQYDRLPLS [En_Gen] the result was 690 pM (6 of 6 replicates).
With KLMQSWDYESRMKNSVA / DASKRSS / QQYHRLPLS [GP_Gibbs] the result was 920 pM (6 of 6 replicates).
With KLSQSWLYEARNSNSVA / HASQRED / QQYHRLPLS [GP_Gibbs] the result was 990 pM (6 of 6 replicates).
With KQSSSTLYESGMKNSVA / NASKRMS / QQYHRLPLS [GP_Gibbs] the result was 1.1 nM (6 of 6 replicates).
With KVEQSDLLESRNKQSVA / QASTRMS / QQYHRLPLS [GP_Gibbs] the result was 1.1 nM (6 of 6 replicates).
With KLSMITGHMQTEKNNVA / EMVTRER / QQYNRLPLA [En_Gen] the result was 1.1 nM (6 of 6 replicates).
With KLDWSVMLESRNKNSVA / QASTRMS / QDYHRLPLS [GP_Gibbs] the result was 1.2 nM (6 of 6 replicates).
With SVFMELAEEKASTRNIA / DASMRLA / QQYVRLPLG [En_Gibbs] the result was 1.5 nM (6 of 6 replicates).
With KLTSITGTEKVHGNSVA / EMATREK / QQYNRLPLA [En_Gen] the result was 1.5 nM (6 of 6 replicates).
With KVEMSVPYEDRNKNSVA / HASVRES / QQYHRLPLS [GP_Gibbs] the result was 1.7 nM (4 of 6 replicates).
With QFHSTMIGDQRNVHSIA / NATAAVP / QYYFRLPLS [En_Gibbs] the result was 1.9 nM (6 of 6 replicates).
With KMSMSVLYEDRHQNSVA / NASQRLD / QQYHRLPLS [GP_Gibbs] the result was 1.9 nM (6 of 6 replicates).
With HVEHAWLLSNATMNAVA / NGATLAD / QQYGRLPLA [En_Gibbs] the result was 2.0 nM (6 of 6 replicates).
With RISQIIQENVRQYNAVA / NGMTRNA / QHYSRLPLE [En_Gibbs] the result was 2.1 nM (6 of 6 replicates).
With KLSTSVLYEDRMCNAVA / AASTREE / QQYHRLPLS [GP_Gibbs] the result was 2.4 nM (6 of 6 replicates).
With ALSMSEWMESRNKNSVA / HANTREE / QQYHRLPLS [GP_Gibbs] the result was 2.9 nM (6 of 6 replicates).
With HLGGLMTWEEKARNSVA / QQNTRVE / QQYHRLPLS [En_HC] the result was 3.7 nM (6 of 6 replicates).
With KLSNSELYESRQKNSVA / EASQREM / QQYHRLPLS [GP_Gibbs] the result was 4.3 nM (6 of 6 replicates).
With HITYGMYVSGRHTSNIA / QAETRMQ / QQYDRLPLI [En_Gen] the result was 4.3 nM (6 of 6 replicates).
With VLPDNLLMFEMQYHSIA / EGVQRME / QQYERLPLT [En_Gibbs] the result was 4.8 nM (6 of 6 replicates).
With MVNGIMDHLSKQTNNVA / ETTTRNA / QQYDRLPLS [En_Gen] the result was 4.8 nM (6 of 6 replicates).
With HITYGMYVHGRYKSNIA / QAETREK / QQYDRLPLM [En_Gen] the result was 5.0 nM (6 of 6 replicates).
With KLTMITGLEKVSTNNVA / EMETRER / QQYNRLPLS [En_Gen] the result was 5.1 nM (6 of 6 replicates).
With KLSMLWLMESRNHNSVA / SANTRES / QQYHRLPLS [GP_Gibbs] the result was 5.2 nM (6 of 6 replicates).
With MMSQVTGSGTRHRNNVA / QTSTREP / QQYDRLPLI [En_Gen] the result was 6.3 nM (6 of 6 replicates).
With KLKELFNMWARAQGNVA / DATERNT / QQYSRLPIC [En_Gibbs] the result was 7.4 nM (6 of 6 replicates).
With TLYGLTNSMSKNKNNVA / EMSTREA / QQYDRLPLV [En_Gen] the result was 7.7 nM (6 of 6 replicates).
With KLLQSVLLESRNDNSVA / NASTREL / AQYHRLPLS [GP_Gibbs] the result was 8.6 nM (6 of 6 replicates).
With VLSDTAGNQYDEADNIA / DKTETSV / QQYARLPLS [En_Gibbs] the result was 9.1 nM (6 of 6 replicates).
With MISLCQNGYYDANNSIA / DRNERAM / QQYGRLPLV [En_Gibbs] the result was 15 nM (6 of 6 replicates).
With KVSEFMKGLTMRKDSIA / DNNTRGS / QQYDRLPLS [En_Gen] the result was 30 nM (6 of 6 replicates).
With TLSMLMDMTSRNVNSVA / DLTTRGN / QQYHRLPLS [En_HC] the result was 38 nM (1 of 6 replicates).
With NFSQMVLTGSTLKNSVA / HASEREE / QQYHRLPLI [En_HC] the result was 47 nM (6 of 6 replicates).
With TLGSQPTEMRDNKHAVA / DDEARTR / QQYMRLPLS [En_Gibbs] the result was 49 nM (5 of 6 replicates).
With QMLMATMQGTYNRNSVA / HAETRED / QSYHRLPLS [En_HC] the result was 56 nM (3 of 6 replicates).
With KMQSHLFQDFAIWNNIA / EREQVAE / QQYFQLPLV [En_Gibbs] the result was 77 nM (3 of 6 replicates).
With TISQSTYWENRNKNSVA / QTSTREE / QDYDRLPLS [En_HC] the result was 100 nM (6 of 6 replicates).
With MIHESYGLMQVKQSSIA / DNSTREE / QQYDRLPLS [En_Gen] the result was 140 nM (5 of 6 replicates).
With MISQLMNLGQFAINSVA / QASIRNS / QQYDRLPLA [En_Gen] the result was 150 nM (5 of 6 replicates).
With HVPNYPENFTSAKQNIA / DQSARTS / QQYDRLPLA [En_Gibbs] the result was 210 nM (6 of 6 replicates).
With QLYAVNDLTSKNSSNVA / EQTTREN / QQYHRLPLS [En_HC] the result was 250 nM (5 of 6 replicates).
With HISQSVGMTSREKNSVA / ENSTRED / QQYDRLPLS [En_HC] the result was 300 nM (6 of 6 replicates).
With FIGGNYNDKYQASNSIA / DEAHLMA / QQYDLLPLS [En_Gibbs] the result was 310 nM (1 of 6 replicates).
With MLDEYQMYEASNDAAIA / DANDVMP / QQYYSLPLS [En_Gibbs] the result was 420 nM (5 of 6 replicates).
With TLHANIEYGGIMWSSIA / GNVQRAN / QQYARLPLG [En_Gibbs] the result was 450 nM (5 of 6 replicates).
With HLGMLTMLEEYVRNSVA / NNSTREQ / QQYDRLPLS [En_Gen] the result was 1.6 µM (4 of 6 replicates).
With QFAGAMYGGGNDWQNIA / EAMTYIK / QQYSRLPLI [En_Gibbs] the result was nd (0 of 6 replicates).
With IVSQLMLWGLHAKNSIA / EAQTRIN / QQYDRLPLF [En_Gen] the result was nd (0 of 6 replicates).

The opening 6 entries, copied out:

The variant KVSMLGLYGQRNKNSVA / EASTRED / QQYHRLPLS [GP_Gibbs] showed 340 pM (6 of 6 replicates).
The variant IVSQLMLWGLHAKNSIA / EAVTRYN / QQYDRLPLF [En_Gen] showed 680 pM (6 of 6 replicates).
The variant MVNGIMDHLSKQTNNVA / ETVTRET / QQYDRLPLS [En_Gen] showed 690 pM (6 of 6 replicates).
The variant KLMQSWDYESRMKNSVA / DASKRSS / QQYHRLPLS [GP_Gibbs] showed 920 pM (6 of 6 replicates).
The variant KLSQSWLYEARNSNSVA / HASQRED / QQYHRLPLS [GP_Gibbs] showed 990 pM (6 of 6 replicates).
The variant KQSSSTLYESGMKNSVA / NASKRMS / QQYHRLPLS [GP_Gibbs] showed 1.1 nM (6 of 6 replicates).

Reference: Li et al. 2023, doi:10.1038/s41467-023-39022-2. File: FLAb, binding data.